Experiment: Redox potential of Os mediator
Type: physicochemical
Description: It has fast mediation kinetics (about 500 times faster than ferricyanide with glucose oxidase) and a relatively low redox potential (+150 mV vs. Ag/AgCl). It has also very fast electron transfer rate at electrode surface. More importantly, the organic ligands on Os mediator can be functionalized so that it can be covalently linked to other molecules without detrimental effects on redox properties of the Os center. These unique properties of Os mediator make it an ideal electrochemical indicator for sensors based on immunoaffinity.

Bis(2,2′-bipyridyl) imidazolyl chloroosmium [Os mediator]
Redox potential: +150 mV vs. Ag/AgCl

From patent USRE40198E1, “Method and device for electrochemical immunoassay of multiple analytes” (Roche Diagnostics Operations, Inc., priority 1998, dated 2008)
